Results published in US8399712B2 (priority 2010, dated 2013).

Experiment: Slurrying in water, resulting solid form
Format: physicochemical
Conditions: three days

pterostilbene:piperazine [cocrystal 4]
Behaviour upon slurrying in water: precipitation of pterostilbene
